This is a selection; strong and weak results do not stand in their true shares. Calls of active or inactive are those of the source. Rule as the data show it: active = inhibition above about 4.5%; inactive = the rest.
System: Methionine sulfoxide reductase A (Bos taurus)
Assay: methionine sulfoxide reductase A inhibition – biochemical, absorbance, bovine, HTS, confirmation (AID 651822);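 also: coupled to thioredoxin reductase with NADPH and selenocystamine and DMSO as substrate; 0% = vehicle only and 100% = full effect of reference inhibitor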
Conditions: purified bovine MsrA, absorbance read-out; at 15.5 µM; stronger effect = higher value

| SMILES | inhibition |
| --- | --- |
| CC(=O)Nc1ccc(Oc2c([N+](=O)[O-])cc([N+](=O)[O-])cc2[N+](=O)[O-])cc1 | active: 4.69% |
| Nc1ccc(CCCCOc2ccccc2)cc1 | inactive: 2.4% |
| O=C(O)c1ccccc1[As](=O)(O)O | active: 81.5% |

— PubChem BioAssay AID651822 (The Scripps Research Institute Molecular Screening Center, 2012)
